In paper PMC10876215, “Nucleosome conformation dictates the histone code” (eLife, 2024):

What was measured:
Experiment in all cases: AlphaScreen or HTRF; dCypher on the Alpha platform; biotinylated NCP (10 nM final) on streptavidin donor beads, GST-tagged Query titrated and held on glutathione acceptor beads; 20 mM HEPES pH 7.5, 250 mM NaCl, 0.01% BSA, 0.01% NP-40, 1 mM DTT; room temperature; relative EC50 (EC50^rel), not an equilibrium Kd
[1] = target: [H3K4me3K14ac • H3] heterotypic nucleosome core particle (UniProt P04908)
[2] = target: [H3K4me3 • H3K14ac] heterotypic nucleosome core particle (UniProt P04908)
[3] = target: H3K4me3K14ac nucleosome core particle (homotypic, dCypher) (UniProt P04908)

EC50 [1]: 10.8 nM
EC50 [2]: 263 nM
EC50 [3]: 7.3 nM
Substance: BPTF GST-PHD-BD (from UniProt Q12830 2865-3036) (domain or fragment)
